Test results from PubChem BioAssay (NCI).
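Method: 48-hour compound exposure of cells in 96-well plates, five concentrations, linear interpolation of endpoints. GI50 = concentration required for 50% inhibition of growth. TGI denotes the concentration required for complete inhibition of growth.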

What was measured:
Experiment in all cases: NCI tumour cell line growth inhibition, 48 h
[1] = test system: UO-31 renal
[2] = test system: UACC-62 melanoma
[3] = test system: U251 CNS
[4] = test system: SN12C renal
[5] = test system: SK-MEL-28 melanoma
[6] = test system: SW-620 colon
[7] = test system: SNB-19 CNS
[8] = test system: OVCAR-4 ovarian
[9] = test system: LOX IMVI melanoma
[10] = test system: UACC-257 melanoma
[11] = test system: ACHN renal
[12] = test system: NCI-H522 lung
[13] = test system: SF-539 CNS
[14] = test system: OVCAR-5 ovarian
[15] = test system: HOP-92 NSCLC
[16] = test system: IGROV1 ovarian
[17] = test system: HCT-15 colon
[18] = test system: MCF7 breast
[19] = test system: PC-3 prostate
[20] = test system: HCT-116 colon
[21] = test system: HL-60(TB) leukemia
[22] = test system: HS 578T breast
[23] = test system: HCC-2998 colon
[24] = test system: KM12 colon
[25] = test system: SF-295 CNS
[26] = test system: NCI-H322M lung
[27] = test system: HT29 colon
[28] = test system: OVCAR-8 ovarian
[29] = test system: CCRF-CEM leukemia
[30] = test system: 786-0 renal
[31] = test system: HOP-62 NSCLC
[32] = test system: K-562 leukemia
[33] = test system: OVCAR-3 ovarian
[34] = test system: MDA-MB-231 breast
[35] = test system: A549 NSCLC
[36] = test system: SF-268 CNS
[37] = test system: RPMI-8226 leukemia
[38] = test system: A498 renal
[39] = test system: SK-OV-3 ovarian
[40] = test system: M14 melanoma
[41] = test system: COLO 205 colon
[42] = test system: NCI-H460 lung
[43] = test system: SK-MEL-5 melanoma
[44] = test system: MDA-MB-435
[45] = test system: MOLT-4 leukemia
[46] = test system: TK-10 renal
[47] = test system: NCI-H226 lung
[48] = test system: T-47D breast
[49] = test system: MALME-3M melanoma
[50] = test system: SK-MEL-2 melanoma
[51] = test system: BT-549 breast
[52] = test system: NCI/ADR-RES ovarian
[53] = test system: SNB-75 CNS
[54] = test system: RXF 393 renal
[55] = test system: EKVX NSCLC
[56] = test system: NCI-H23 lung
[57] = test system: SR leukemia

CC(=O)O[C@@H]1C[C@H]2O[C@@H]3C=C(C)CC[C@]3(C)[C@]1(C)[C@]21CO1
GI50 [1]: 4.01 µM
TGI [1]: 22.7 µM
GI50 [2]: 1.53 µM
TGI [2]: 8.37 µM
GI50 [3]: 1.28 µM
TGI [3]: 15.9 µM
GI50 [4]: 2.14 µM
TGI [4]: 21 µM
GI50 [5]: 1.03 µM
TGI [5]: 4.38 µM
GI50 [6]: 1.29 µM
TGI [6]: 16.7 µM
GI50 [7]: 1.28 µM
TGI [7]: 20.9 µM
GI50 [8]: 0.994 µM
TGI [8]: 5.88 µM
GI50 [9]: 0.763 µM
TGI [9]: 3.07 µM
GI50 [10]: 1.72 µM
TGI [10]: 15.1 µM
GI50 [11]: 2.03 µM
TGI [11]: 10.6 µM
GI50 [12]: 1 µM
TGI [12]: 5.16 µM
GI50 [13]: 1.28 µM
TGI [13]: 7.47 µM
GI50 [14]: 6.59 µM
TGI [14]: 24.2 µM
GI50 [15]: 2.43 µM
TGI [15]: 20.5 µM
GI50 [16]: 2.29 µM
TGI [16]: 20 µM
GI50 [17]: 1.18 µM
TGI [17]: 16.2 µM
GI50 [18]: 0.992 µM
TGI [18]: > 33.3 µM
GI50 [19]: 5.32 µM
TGI [19]: > 33.3 µM
GI50 [20]: 0.925 µM
TGI [20]: 5.64 µM
GI50 [21]: 0.975 µM
TGI [21]: 2.69 µM
GI50 [22]: 1.65 µM
TGI [22]: 15.2 µM
GI50 [23]: 3.35 µM
TGI [23]: 15.7 µM
GI50 [24]: 1.88 µM
TGI [24]: 16.7 µM
GI50 [25]: 4.85 µM
TGI [25]: 22.2 µM
GI50 [26]: 1.61 µM
TGI [26]: 15.7 µM
GI50 [27]: 1.34 µM
TGI [27]: 9.5 µM
GI50 [28]: 1.4 µM
TGI [28]: 21 µM
GI50 [29]: 1.22 µM
TGI [29]: > 33.3 µM
GI50 [30]: 2.09 µM
TGI [30]: 16.2 µM
GI50 [31]: 5.44 µM
TGI [31]: 20.2 µM
GI50 [32]: 1.34 µM
TGI [32]: > 33.3 µM
GI50 [33]: 1.64 µM
TGI [33]: 11.7 µM
GI50 [34]: 3.29 µM
TGI [34]: 14.6 µM
GI50 [35]: 1.81 µM
TGI [35]: 21.5 µM
GI50 [36]: 1.55 µM
TGI [36]: 20.8 µM
GI50 [37]: 1.64 µM
TGI [37]: 18.1 µM
GI50 [38]: 5.49 µM
TGI [38]: 14.1 µM
GI50 [39]: 2.01 µM
TGI [39]: 14.7 µM
GI50 [40]: 0.868 µM
TGI [40]: 2.75 µM
GI50 [41]: 0.754 µM
TGI [41]: 1.96 µM
GI50 [42]: 1.26 µM
TGI [42]: 9.82 µM
GI50 [43]: 0.972 µM
TGI [43]: 2.93 µM
GI50 [44]: 1.17 µM
TGI [44]: 7.2 µM
GI50 [45]: 1.08 µM
TGI [45]: 26.8 µM
GI50 [46]: 6.55 µM
TGI [46]: 23.3 µM
GI50 [47]: 3.35 µM
TGI [47]: 18.5 µM
GI50 [48]: 0.816 µM
TGI [48]: 4.93 µM
GI50 [49]: 2.3 µM
TGI [49]: 13.2 µM
GI50 [50]: 1.02 µM
TGI [50]: 4.61 µM
GI50 [51]: 1.47 µM
TGI [51]: 10.3 µM
GI50 [52]: 1.66 µM
TGI [52]: 18.5 µM
GI50 [53]: 1.14 µM
TGI [53]: 10.1 µM
GI50 [54]: 1.75 µM
TGI [54]: 9.94 µM
GI50 [55]: 2.49 µM
TGI [55]: 23.7 µM
GI50 [56]: 1.41 µM
TGI [56]: 14.8 µM
GI50 [57]: 1.33 µM
TGI [57]: > 33.3 µM
